In PubChem BioAssay (Tox21) one finds activation data, which are given here for 13 compounds.

Protein sequences, listed by entry. Tags and fused reporters are not part of them.
UniProt Q03181, whole entry: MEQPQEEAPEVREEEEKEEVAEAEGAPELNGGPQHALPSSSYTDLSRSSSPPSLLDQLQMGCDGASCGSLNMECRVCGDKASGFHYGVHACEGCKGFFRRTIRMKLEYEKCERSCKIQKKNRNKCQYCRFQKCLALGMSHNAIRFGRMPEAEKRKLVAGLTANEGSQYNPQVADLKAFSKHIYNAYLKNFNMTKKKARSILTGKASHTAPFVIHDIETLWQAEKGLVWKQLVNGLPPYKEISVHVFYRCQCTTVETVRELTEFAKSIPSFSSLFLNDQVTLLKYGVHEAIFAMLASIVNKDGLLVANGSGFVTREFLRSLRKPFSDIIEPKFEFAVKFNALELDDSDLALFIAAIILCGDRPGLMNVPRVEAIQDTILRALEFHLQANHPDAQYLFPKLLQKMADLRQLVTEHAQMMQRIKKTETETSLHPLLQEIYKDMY

Molecules are shown by their SMILES. Values joined by “and” are separate entries in the source; they are usually repeats but may differ in a detail not shown here. Equal values may be shown once. This is a selection; strong and weak results do not stand in their true shares. Records with an inconclusive call do not appear. Active and inactive are the calls of the source. Calls come from the whole dose curve.
% is set by controls: 0 for no effect and ±100 for the full control effect.

One assay addresses Peroxisome proliferator-activated receptor delta (Homo sapiens) (UniProt Q03181). In words: qHTS assay to identify small molecule agonists of the peroxisome proliferator-activated receptor delta (PPARd) signaling pathway (AID 743212). Particulars: HEK293H PPARd-UAS-bla, beta-lactamase FRET ratio, 17 h; at 62.6 µM (top of the series). The source says: U.S. Tox21 Program National Center for Advancing Translational Sciences [NCATS] NIH Chemical Genomics Center [NCGC] U.S. Environmental Protection Agency [EPA] National Institutes of Environmental Health Sciences [NIEHS] National Toxicology Program [NTP] U.S. Food and Drug Administration [FDA] Tox21 Assay Overview: The peroxisome proliferator-activated receptors (PPARs) are lipid-activated transcription factors of the nuclear receptor superfamily with three distinct subtypes namely PPAR alpha, PPAR delta (PPARd) and PPAR gamma. All these subtypes heterodimerizes with Retinoid X receptor (RXR) and have different physiological functions. […] To identify the compounds that activate PPAR-delta signaling, GeneBLAzer PPAR delta UAS-bla HEK293H cell line (Invitrogen, Carlsbad, CA, USA) containing a beta-lactamase reporter gene under the control of an Upstream Activator Sequence (UAS) was used to screen the Tox21 compound library.
Tox21 Assay Protocol Summary: PPARd-bla cells were dispensed at 3000 cells/6uL/well in 1536-well black wall/clear bottom plates using a Multidrop Combi (Thermo Fisher Scientific, Waltham, MA) dispenser. After the assay plates were incubated at 37 C and 5% CO2 for 5 h, 23 nL of compounds dissolved in DMSO, positive controls or DMSO only was transferred to the assay plate by a Pintool station (Kalypsys, San Diego, CA). The assay plates were incubated at 37C for 17 h. After 1 uL of LiveBLAzerTM B/G FRET substrate was added using a Bioraptr Flying Reagent Dispenser (FRD) workstation (Beckman Coulter, Indianapolis, IN, USA), the plates were incubated at room temperature for 2 h, and fluorescence intensity was measured by an Envision plate reader (PerkinElmer, Shelton, CT).
With `[NH4+].[O-][Cl+3]([O-])([O-])[O-]`, the activation was inactive: 0.675%. On the same count and under the same terms, in the case of `Cc1c([N+](=O)[O-])cccc1[N+](=O)[O-]` it was inactive: 1.03%; in that of `Cc1cccc([N+](=O)[O-])c1[N+](=O)[O-]`, inactive: -7.14%; in that of `CP(=O)(O)OCCC[Si](O)(O)O`, inactive: 1.72%.

Turning to `COc1ccc([N+](=O)[O-])cc1[N+](=O)[O-]`, the activation is inactive: 2.04%.

With `COP(C)(=O)OC`, the activation was inactive: 6.3%. Still for that read-out and setting: in the case of `CCOP(=O)(CC)Oc1ccc([N+](=O)[O-])cc1` (stereo not given) it was inactive: 9.42%; in that of `CC(C)OP(C)(=O)OC(C)C`, inactive: -0.109% and inactive: -2.59%; in that of `O=[N+]([O-])OCC(CO[N+](=O)[O-])(CO[N+](=O)[O-])CO[N+](=O)[O-]`, inactive: 4.68%. On to `C/C1=C2N=C(/C=C3N=C(/C(C)=C4\[N-][C@@](C)([C@@H]5N=C1[C@](C)(CCC(=O)NC[C@@H](C)OP(=O)([O-])O[C@H]1[C@@H](O)[C@@H](n6cnc7cc(C)c(C)cc76)O[C@@H]1CO)[C@H]5CC(N)=O)[C@@](C)(CC(N)=O)[C@@H]4CCC(N)=O)[C@@](C)(CC(N)=O)[C@@H]\3CCC(N)=O)C(C)(C)[C@@H]/2CCC(N)=O.[C-]#N.[Co+3]`, for which the activation is inactive: 0.944%.

The same assay, now with this note: HEK293H PPARd-UAS-bla, beta-lactamase FRET ratio, 17 h; at 81.1 µM (top of the series).
For the compound `[NH4+].[O-][Cl+3]([O-])([O-])[O-]`, the activation was inactive: 1.81%. For the compound `N=C(N)N[N+](=O)[O-]`, the activation was inactive: -4.22%. Same read-out and setting: the result for `O=[N+]([O-])c1cccc([N+](=O)[O-])c1` reads inactive: 6.89%. On the same count and under the same terms, the result for `COP(C)(=O)OC` reads inactive: 1.05%. For `OCCSCCO`, the activation is inactive: -2.72%.
